In patent publication US20250235422A1, “DODECA-2,4,6,8,10-PENTAENOIC ACID COMPOSITIONS AND USES THEREOF” (BiomEdit, Inc., priority 2024, published 2025):
Entries after “also recorded” stand apart in the source; their conditions may differ.

Assays:
[1] = target: T1, AHR (Homo sapiens, UniProt P35869); assay: AhR activity assay using HepG2-Lucia AhR reporter cells; assay type: cell-based; details: isolated orange pigmented PKS metabolite from L. reuteri 3632
T1 sequence (P35869 11-848): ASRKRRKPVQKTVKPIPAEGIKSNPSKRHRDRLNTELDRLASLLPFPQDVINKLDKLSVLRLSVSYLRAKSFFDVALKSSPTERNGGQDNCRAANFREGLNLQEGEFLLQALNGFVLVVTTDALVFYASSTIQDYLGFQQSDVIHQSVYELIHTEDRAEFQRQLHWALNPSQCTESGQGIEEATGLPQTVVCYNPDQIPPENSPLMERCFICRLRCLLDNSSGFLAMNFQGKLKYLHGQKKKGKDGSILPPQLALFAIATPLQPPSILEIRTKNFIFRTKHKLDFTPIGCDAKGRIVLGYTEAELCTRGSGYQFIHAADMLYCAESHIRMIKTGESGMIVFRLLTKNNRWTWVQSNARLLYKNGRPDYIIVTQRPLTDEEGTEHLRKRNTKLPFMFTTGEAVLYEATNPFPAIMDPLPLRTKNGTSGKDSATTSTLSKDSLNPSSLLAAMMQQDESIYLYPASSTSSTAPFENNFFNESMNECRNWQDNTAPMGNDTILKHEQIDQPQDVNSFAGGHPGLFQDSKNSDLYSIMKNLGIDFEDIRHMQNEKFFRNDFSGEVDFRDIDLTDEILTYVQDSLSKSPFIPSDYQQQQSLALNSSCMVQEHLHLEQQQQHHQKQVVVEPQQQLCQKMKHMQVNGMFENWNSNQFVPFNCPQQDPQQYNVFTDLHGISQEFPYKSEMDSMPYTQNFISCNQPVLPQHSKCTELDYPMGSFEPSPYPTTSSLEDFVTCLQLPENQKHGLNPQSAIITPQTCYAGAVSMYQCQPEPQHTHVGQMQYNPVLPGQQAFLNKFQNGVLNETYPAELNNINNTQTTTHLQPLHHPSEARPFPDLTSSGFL

[2] = Light stability and hydrophobicity observed during development; assay type: physicochemical
[3] = target: T1, AHR; details: AHR ligand activity; Table 1 reproduced from Barroso A et al., 2021; cited from earlier work

| Structure (SMILES) | AhR agonist activity [1] | hydrophobicity [2] | Activity [3] |
| --- | --- | --- | --- |
| CC=CC=CC=CC=CC=CC(=O)O [DDPA, dodeca-2,4,6,8,10-pentaenoic acid] | effective AhR agonist; also recorded: agonist of the AhR signaling pathway | hydrophobic |  |
| COc1ccc(-c2cc(=O)c3c(O)cc(O[C@@H]4O[C@H](CO[C@@H]5O[C@@H](C)[C@H](O)[C@@H](O)[C@H]5O)[C@@H](O)[C@H](O)[C@H]4O)cc3o2)cc1O [Diosmin] |  |  | Agonist |
